The values below come from PubChem BioAssay AID1322 (NMMLSC, 2008).

Amino acid sequences for entries named in this document (tags omitted).
UniProt Q07817, whole entry, looked up: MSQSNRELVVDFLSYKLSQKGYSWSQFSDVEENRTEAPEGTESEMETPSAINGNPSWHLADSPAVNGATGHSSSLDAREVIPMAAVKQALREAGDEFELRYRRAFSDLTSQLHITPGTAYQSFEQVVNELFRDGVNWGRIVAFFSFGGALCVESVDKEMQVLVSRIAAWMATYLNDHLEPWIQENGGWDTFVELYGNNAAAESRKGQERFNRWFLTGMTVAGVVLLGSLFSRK

The list shows a part of the results, in another mix than the full data. Activity calls are given as the source filed them. No rule for the calls is given here.

For this assay, the target named is Bcl-2-like protein 1 (Homo sapiens) (UniProt Q07817). Nature of the assay: Bim-Bcl-XL interaction inhibitors, potency, dose response, biochemical, multiplexed, bead flow cytometry, human Bcl-XL (AID 1322). Also: test concentration not given here. The settings on record: Bead-based flow cytometry, Bim peptide-Bcl-XL binding, MCF.

For `CCOP1(=S)c2c(C)nn(CCC#N)c2N=C(c2ccc(F)cc2)N1C` (stereo unspecified), the inhibition entry is “inactive”.
